pIC50: −log10 of the molar value.
Target: Cyclin-dependent kinase 5/CDK5 activator 1 (Homo sapiens, UniProt Q00535)
Test: Inhibition of human recombinant CDK5/p25 after 30 mins by scintillation counting
Assay type: protein-complex assay

Chains of the proteins cited; added tags and fusions are not shown.
UniProt Q00535, whole entry: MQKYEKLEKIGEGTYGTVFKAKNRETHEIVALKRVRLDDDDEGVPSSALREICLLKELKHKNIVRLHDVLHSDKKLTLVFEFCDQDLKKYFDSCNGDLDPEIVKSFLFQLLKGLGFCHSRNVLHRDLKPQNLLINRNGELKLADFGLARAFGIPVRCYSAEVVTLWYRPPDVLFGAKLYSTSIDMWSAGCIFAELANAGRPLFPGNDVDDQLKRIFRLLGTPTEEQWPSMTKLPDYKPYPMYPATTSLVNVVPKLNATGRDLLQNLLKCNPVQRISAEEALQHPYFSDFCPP

`COc1ccc2c(c1)[nH]c1c(C)nccc12` [HARMINE] gave a pIC50 of less than 5.00.
